Measurements: patent publication US8071548B2, “Method of reducing injury to mammalian cells” (Nono, Inc., priority 2002, dated 2011)

Amino acid sequences for entries named in this document (tags omitted).
UniProt P31016, whole entry: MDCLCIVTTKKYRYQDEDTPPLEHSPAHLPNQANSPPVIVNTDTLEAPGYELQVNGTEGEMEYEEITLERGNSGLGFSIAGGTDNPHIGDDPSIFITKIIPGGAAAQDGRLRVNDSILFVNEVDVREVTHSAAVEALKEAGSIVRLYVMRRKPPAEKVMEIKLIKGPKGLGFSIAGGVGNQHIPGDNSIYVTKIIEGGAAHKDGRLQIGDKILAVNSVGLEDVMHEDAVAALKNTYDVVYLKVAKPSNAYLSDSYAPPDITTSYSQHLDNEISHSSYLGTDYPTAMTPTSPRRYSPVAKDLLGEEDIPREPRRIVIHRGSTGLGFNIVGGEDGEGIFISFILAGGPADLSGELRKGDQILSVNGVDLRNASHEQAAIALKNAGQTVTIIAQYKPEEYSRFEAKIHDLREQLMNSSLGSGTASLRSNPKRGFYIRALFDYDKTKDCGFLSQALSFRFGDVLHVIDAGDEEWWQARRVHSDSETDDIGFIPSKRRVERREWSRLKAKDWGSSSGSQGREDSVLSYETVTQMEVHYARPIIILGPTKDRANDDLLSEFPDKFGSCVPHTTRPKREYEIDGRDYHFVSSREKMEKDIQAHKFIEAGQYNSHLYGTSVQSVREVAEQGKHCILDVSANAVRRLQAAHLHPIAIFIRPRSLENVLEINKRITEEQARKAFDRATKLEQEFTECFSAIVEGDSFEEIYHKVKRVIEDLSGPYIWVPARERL

Target: NMDAR/PSD-95 interaction (Rattus norvegicus, UniProt P31016)
Type: binding

Substance: Tat-KLSSIESDV [Tat-NR2B9c]
- reduction of co-immunoprecipitation of PSD-95 with NR2B (optical density signal): 37.6±8.2%
